Results as given in ChEMBL document CHEMBL5236558, “Imidazo[1,2-b]pyridazine as privileged scaffold in medicinal chemistry: An extensive review” (Eur J Med Chem, 2021).

Molecular target: T1, Phosphatidylinositol 4,5-bisphosphate 3-kinase catalytic subunit delta isoform (Homo sapiens, UniProt O00329)
T1 sequence (O00329 whole entry): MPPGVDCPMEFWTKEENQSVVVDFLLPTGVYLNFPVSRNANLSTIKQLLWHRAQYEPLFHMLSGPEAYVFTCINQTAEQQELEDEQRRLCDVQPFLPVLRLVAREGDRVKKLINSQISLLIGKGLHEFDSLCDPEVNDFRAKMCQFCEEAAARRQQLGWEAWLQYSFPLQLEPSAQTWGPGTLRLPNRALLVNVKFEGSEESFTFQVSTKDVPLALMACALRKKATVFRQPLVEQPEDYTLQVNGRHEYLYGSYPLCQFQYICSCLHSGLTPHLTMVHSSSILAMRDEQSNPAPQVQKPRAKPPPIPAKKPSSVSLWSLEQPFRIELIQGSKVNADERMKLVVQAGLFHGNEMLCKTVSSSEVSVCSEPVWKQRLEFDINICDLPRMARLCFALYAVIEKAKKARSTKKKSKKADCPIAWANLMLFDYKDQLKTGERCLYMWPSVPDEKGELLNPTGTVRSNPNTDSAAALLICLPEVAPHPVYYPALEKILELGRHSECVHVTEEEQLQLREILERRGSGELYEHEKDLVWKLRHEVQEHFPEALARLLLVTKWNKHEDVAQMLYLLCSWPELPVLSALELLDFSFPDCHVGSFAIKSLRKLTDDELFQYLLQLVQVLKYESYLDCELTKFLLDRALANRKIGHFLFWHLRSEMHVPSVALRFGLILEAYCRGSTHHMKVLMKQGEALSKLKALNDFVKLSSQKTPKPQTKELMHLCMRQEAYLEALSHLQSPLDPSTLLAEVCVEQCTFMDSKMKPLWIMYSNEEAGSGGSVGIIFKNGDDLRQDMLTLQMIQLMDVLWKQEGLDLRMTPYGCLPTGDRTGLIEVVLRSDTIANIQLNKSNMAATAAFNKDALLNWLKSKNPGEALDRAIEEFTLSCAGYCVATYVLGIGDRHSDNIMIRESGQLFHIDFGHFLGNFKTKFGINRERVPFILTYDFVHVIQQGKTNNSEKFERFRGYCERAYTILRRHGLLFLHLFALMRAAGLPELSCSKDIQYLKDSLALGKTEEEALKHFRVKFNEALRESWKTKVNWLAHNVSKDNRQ
Test: Inhibition of PI3Kdelta (unknown origin)

## CC(Nc1ncnc(N)c1C#N)c1cc2ncc(Cl)n2nc1-c1ccccc1 (stereo unspecified)
  IC50: 87 nM
